US20050038015A1, “Partial dopamine-D 2 receptor agonist plus serotonin and/oder noradrenaline inhibitor activity” (priority 2002, published 2005)

Protein sequences, listed by entry. Tags and fused reporters are not part of them.
UniProt P31652, whole entry: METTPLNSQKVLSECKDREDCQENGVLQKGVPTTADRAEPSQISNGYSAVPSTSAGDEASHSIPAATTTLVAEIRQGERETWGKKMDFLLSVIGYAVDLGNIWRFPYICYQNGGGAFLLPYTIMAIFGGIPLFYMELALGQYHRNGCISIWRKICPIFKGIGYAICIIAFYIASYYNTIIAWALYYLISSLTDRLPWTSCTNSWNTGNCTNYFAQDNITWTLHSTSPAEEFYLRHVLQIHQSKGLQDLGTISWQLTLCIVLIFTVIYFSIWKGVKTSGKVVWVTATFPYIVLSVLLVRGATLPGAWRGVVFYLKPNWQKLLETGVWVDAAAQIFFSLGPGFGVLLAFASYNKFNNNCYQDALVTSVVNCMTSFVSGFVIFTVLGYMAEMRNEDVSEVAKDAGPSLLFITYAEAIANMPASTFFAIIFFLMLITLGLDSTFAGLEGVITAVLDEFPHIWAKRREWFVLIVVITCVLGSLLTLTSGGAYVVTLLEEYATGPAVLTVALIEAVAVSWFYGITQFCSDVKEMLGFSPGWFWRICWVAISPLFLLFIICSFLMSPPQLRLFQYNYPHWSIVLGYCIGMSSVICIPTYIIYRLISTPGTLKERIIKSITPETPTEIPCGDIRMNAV
UniProt P14416, whole entry: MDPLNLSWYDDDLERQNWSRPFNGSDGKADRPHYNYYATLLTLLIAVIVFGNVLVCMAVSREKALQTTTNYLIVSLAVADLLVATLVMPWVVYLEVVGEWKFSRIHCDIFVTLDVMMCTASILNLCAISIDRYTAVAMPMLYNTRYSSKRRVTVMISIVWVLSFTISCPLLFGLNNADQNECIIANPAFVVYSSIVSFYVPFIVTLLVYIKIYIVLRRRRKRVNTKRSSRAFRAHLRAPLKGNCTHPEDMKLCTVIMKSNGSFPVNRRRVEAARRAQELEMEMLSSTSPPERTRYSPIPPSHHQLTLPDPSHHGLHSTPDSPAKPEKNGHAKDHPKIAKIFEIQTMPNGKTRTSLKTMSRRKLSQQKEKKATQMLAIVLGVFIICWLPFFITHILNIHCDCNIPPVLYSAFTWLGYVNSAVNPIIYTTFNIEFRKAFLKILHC

Key:
serotonin reuptake sites = biological target: T1, serotonin reuptake sites (Rattus norvegicus, UniProt P31652); assay: In vitro functional inhibition of [3H]-serotonin reuptake in rat brain synaptosomes; type: biochemical
T1 construct: the cerebral hemispheres were rapidly removed and a P2-synaptosomal fraction was prepared; from tissue; host or cells: rat (Wistar) cerebral hemispheres, P2-synaptosomal fraction

[1] = biological target: human dopamine D2,L receptors (Homo sapiens, UniProt P14416); assay: cell-based
[2] = biological target: noradrenaline reuptake sites (Rattus norvegicus, UniProt Q9WTR4); assay: In vitro functional inhibition of [3H]-noradrenalin reuptake in rat hypothalamus synaptosomes

With `Fc1ccc([C@@H]2CCNC[C@H]2COc2ccc3c(c2)OCO3)cc1` as the molecule, how does the IC50 (serotonin reuptake sites) read?
Its IC50 is 39.8 nM.

Which EC50 [1] does the source give for `CCCN1CCC[C@@H](c2cccc(O)c2)C1` [preclamol] here?
Its EC50 is 398 nM.

For `CCCN1CCC[C@@H]2Cc3n[nH]cc3C[C@H]21` [quinpirole], which “NA uptake pIC50” value [2] is on record?
The value was <5.0.

What about the IC50 (serotonin reuptake sites) of the same molecule?
Its IC50 is > 10000 nM.
